{"sequences": {"note": "The chains behind the UniProt entries cited, without tags or fusion partners. Residues count along the entry.", "UniProt Q8N884, 147-522 limits assumed": "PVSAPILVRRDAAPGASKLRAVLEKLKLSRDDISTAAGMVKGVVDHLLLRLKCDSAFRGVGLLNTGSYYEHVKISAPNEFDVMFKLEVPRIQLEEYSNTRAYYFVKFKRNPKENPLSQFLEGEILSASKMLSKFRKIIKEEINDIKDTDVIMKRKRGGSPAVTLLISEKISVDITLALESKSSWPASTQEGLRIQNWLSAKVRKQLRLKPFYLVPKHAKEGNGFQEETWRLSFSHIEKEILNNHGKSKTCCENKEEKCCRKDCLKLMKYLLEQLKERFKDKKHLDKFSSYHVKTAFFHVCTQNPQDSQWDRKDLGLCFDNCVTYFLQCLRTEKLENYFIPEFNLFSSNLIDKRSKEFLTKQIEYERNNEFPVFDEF"}, "source": "patent US12065416B2", "about": "“cGAS antagonist compounds” (IMMUNESENSOR THERAPEUTICS, INC., priority 2016, dated 2024)", "biological_target": "recombinant cGAS (aa147-522) (Homo sapiens, UniProt Q8N884)", "assay": "In vitro assay for inhibition of cGAS activity (ATP consumption, Kinase Glo)", "conditions": "read-out: Activity (Inhibition of cGAS enzyme activity in vitro, IC50), 37° C. 20 minutes", "description": "cDNA encoding full-length or amino acids 147-520 of human cGAS is inserted into a modified pET28a vector containing an in-frame His6-SUMO tag. The E. coli strain BL21/pLys harboring the plasmid is induced with 0.5 mM IPTG at 18° C. overnight. His6-SUMO tag was removed by a SUMO proease following purification of the HiS-SUMO-cGAS as described previously (Sun et al, 2013, Science 339, 786).\nA40 μL mixture containing 1.5 ng/μL of recombinant cGAS (aa147-522) and serial dilutions of a test compound or DMSO was added to a 96-well plate and incubated at 37° C. for 20 minutes. At the end of reaction, 20 μL of Kinase Glo (Promega) was added and chemiluminescence measured with a luminometer. Inhibitory effect of a compound is evaluated by plotting percentage of ATP consumption against logarithm of compound concentrations. IC50 value was calculated using Graphpad (Sigma)."}
{"molecule": "COc1cc(/C=C2\\SC(=O)N(C)C2=S)c(Br)cc1O", "values": [{"measurement": "IC50", "value": "< 500", "unit": "nM"}]}
